Experiment [1] deals with NIH3T3/EGFR L858R+T790M. Put plainly: Cell proliferation assay (CellTiter-Glo), NIH3T3/EGFR L858R+T790M.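 Also: luminescent ATP read-out proportional to metabolically active cell number, cells grown in serum-supplemented medium, 11-point threefold serial dilution tested in duplicate, incubation at 37 °C with 5% CO2.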 Format: cell-based. Particulars: read-out: 3T3 L858R_T790M IC50, 3T3 cell line, three to five days of compound treatment. (In general: Cellular ATP, detected with luciferase, serves as a proxy for viable cell number.)
Experiment [2] concerns the target EGFR L858R+T790M (Homo sapiens, UniProt P00533, L858R/T790M). As to the kind of experiment: pEGFR Y1068 ELISA assay, NIH3T3/EGFR_L858R+T790M cells.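 Also: sandwich ELISA of EGFR phosphorylated at Tyr1068 in lysates of stably transfected NIH/3T3 cells, 11-point threefold dilution series run in duplicate.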 It is filed as cell-based. Conditions: read-out: pEGFRY1068 ELISA3T3T790M—L858R IC50; 3T3 cell line, 2 hrs compound treatment. On the technique in general: ELISA stands for enzyme-linked immunosorbent assay.
In experiment [3] the target is EGFR L858R (Homo sapiens, UniProt P00533, L858R). As to the kind of experiment: pEGFR Y1068 ELISA assay, NIH3T3/EGFR_L858R cells.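 Also: sandwich ELISA of phospho-EGFR Tyr1068 in lysates of stably transfected NIH/3T3 pools after 2 h compound exposure at 37 °C, 11-point threefold dilution series run in duplicate.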 Particulars: read-out: pEGFRY1068 ELISA3T3 L858R IC50; 3T3 cell line, 2 hrs compound treatment. Format: cell-based.
Experiment [4] concerns the target EGFR wildtype, endogenous (Homo sapiens, UniProt P00533). Put plainly: pEGFR Y1068 ELISA assay, A549 cells.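 Also: sandwich ELISA of phospho-EGFR Tyr1068 in cell lysates, cells exposed to compound for 2 h before EGF stimulation, 11-point threefold dilution series run in duplicate.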 It is filed as cell-based. Particulars: read-out: pEGFRY1068 ELISAA549 IC50, full serum media, stimulated 10 min with EGF (40 ng/mL).
Experiment [5] deals with NIH3T3/EGFR_E746-A750_deletion+T790M. As to the kind of experiment: Cell proliferation assay (CellTiter-Glo), NIH3T3/EGFR_E746-A750_deletion+T790M. Particulars: read-out: 3T3 del_T790M IC50, 3T3 cell line, three to five days of compound treatment.
Experiment [6] deals with NIH3T3/EGFR_E746-A750_deletion. Put plainly: Cell proliferation assay (CellTiter-Glo), NIH3T3/EGFR_E746-A750_deletion. Conditions: read-out: 3T3 del IC50, 3T3 cell line, three to five days of compound treatment.
The test system of experiment [7] is NIH3T3/EGFR_L858R. As to the kind of experiment: Cell proliferation assay (CellTiter-Glo), NIH3T3/EGFR_L858R. Conditions: read-out: 3T3 L858R IC50, 3T3 cell line, three to five days of compound treatment.
Experiment [8] deals with EGFR L858R+T790M, endogenous (Homo sapiens, UniProt P00533, L858R/T790M). As to the kind of experiment: pEGFR Y1068 ELISA assay, NCI-H1975 cells.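 Also: sandwich ELISA of endogenous phospho-EGFR (Tyr1068) in lysates of treated cells, 11-point 1:3 serial dilution tested in duplicate per plate.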 Particulars: read-out: pEGFRY1068 ELISA3T3T790M—L858R IC50 (nM), (H1975); value marked (H1975): NCI-H1975 cells, 2 hrs compound treatment. Format: cell-based.
The target in experiment [9] is EGFR Del (PC9) (Homo sapiens, UniProt P00533, DEL746-750). As to the kind of experiment: EGFR ELISA, PC9 Del cells.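 Also: cellular EGFR autophosphorylation at Tyr1068 quantified by sandwich ELISA of cell lysates after 2 h compound exposure at 37 °C, 11-point threefold dilution series.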 Particulars: read-out: EGFR_ELISA9E PC9 Del IC50. It is filed as cell-based.
Experiment [10] addresses EGFR L858R, endogenous (Homo sapiens, UniProt P00533, L858R). Put plainly: pEGFR Y1068 ELISA assay, NCI-H3255 cells. Format: cell-based. Particulars: read-out: pEGFRY1068 ELISA3T3 L858R IC50 (nM), (H3255); value marked (H3255): NCI-H3255 cells, 2 hrs compound treatment.
In experiment [11] the target is EGFR E746-A750 deletion (Homo sapiens, UniProt P00533, DEL746-750). As to the kind of experiment: pEGFR Y1068 ELISA assay, NIH3T3/EGFR_E746-A750 deletion cells.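 Also: sandwich ELISA on cell lysates detecting phospho-EGFR at Tyr1068, compounds run as 11-point threefold dilution series in duplicate, IC50 from inhibition of this phosphorylation signal.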 It is filed as cell-based. Conditions: read-out: ELISA7E 3T3 Del IC50; 3T3 Del cells, 2 hrs compound treatment.

The chains behind the UniProt entries cited, without tags or fusion partners. Where a name states a change or a piece, a line headed by the entry shows the natural chain unless it says otherwise. A line that says so, or that is headed by a name, gives the form on record, which may keep a tag or linker. Residues count along the entry.
UniProt P00533, 25-1210 L858R limits assumed: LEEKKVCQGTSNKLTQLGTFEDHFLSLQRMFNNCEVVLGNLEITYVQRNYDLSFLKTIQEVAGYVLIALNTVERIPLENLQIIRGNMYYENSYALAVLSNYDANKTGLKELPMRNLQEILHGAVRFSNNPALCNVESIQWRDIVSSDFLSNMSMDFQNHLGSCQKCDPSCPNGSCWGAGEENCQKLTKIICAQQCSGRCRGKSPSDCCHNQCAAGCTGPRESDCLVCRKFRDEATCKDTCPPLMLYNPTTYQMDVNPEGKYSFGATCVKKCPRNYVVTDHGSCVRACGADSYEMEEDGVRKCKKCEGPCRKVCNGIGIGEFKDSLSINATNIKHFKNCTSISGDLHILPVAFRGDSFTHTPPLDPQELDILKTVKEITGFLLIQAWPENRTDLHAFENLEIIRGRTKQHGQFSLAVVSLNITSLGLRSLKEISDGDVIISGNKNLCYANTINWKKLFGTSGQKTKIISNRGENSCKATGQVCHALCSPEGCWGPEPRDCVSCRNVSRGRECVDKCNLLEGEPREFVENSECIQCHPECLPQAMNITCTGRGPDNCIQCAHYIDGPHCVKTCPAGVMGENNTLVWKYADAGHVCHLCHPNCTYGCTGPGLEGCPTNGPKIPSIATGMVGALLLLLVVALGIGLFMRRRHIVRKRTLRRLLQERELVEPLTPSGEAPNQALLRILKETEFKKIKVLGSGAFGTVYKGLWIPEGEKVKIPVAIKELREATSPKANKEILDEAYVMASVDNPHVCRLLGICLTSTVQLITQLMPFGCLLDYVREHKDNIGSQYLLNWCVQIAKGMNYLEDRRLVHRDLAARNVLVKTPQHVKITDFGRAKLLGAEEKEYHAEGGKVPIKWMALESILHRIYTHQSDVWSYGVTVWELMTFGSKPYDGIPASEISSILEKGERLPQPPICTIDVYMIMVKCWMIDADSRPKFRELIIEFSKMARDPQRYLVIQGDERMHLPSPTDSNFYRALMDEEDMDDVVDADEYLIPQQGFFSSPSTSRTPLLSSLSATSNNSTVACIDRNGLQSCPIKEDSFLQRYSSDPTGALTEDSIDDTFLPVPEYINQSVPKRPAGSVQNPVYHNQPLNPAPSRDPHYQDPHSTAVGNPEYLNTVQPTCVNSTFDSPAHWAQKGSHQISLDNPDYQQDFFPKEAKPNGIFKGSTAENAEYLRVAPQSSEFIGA
UniProt P00533, 25-1210 T790M/L858R limits assumed: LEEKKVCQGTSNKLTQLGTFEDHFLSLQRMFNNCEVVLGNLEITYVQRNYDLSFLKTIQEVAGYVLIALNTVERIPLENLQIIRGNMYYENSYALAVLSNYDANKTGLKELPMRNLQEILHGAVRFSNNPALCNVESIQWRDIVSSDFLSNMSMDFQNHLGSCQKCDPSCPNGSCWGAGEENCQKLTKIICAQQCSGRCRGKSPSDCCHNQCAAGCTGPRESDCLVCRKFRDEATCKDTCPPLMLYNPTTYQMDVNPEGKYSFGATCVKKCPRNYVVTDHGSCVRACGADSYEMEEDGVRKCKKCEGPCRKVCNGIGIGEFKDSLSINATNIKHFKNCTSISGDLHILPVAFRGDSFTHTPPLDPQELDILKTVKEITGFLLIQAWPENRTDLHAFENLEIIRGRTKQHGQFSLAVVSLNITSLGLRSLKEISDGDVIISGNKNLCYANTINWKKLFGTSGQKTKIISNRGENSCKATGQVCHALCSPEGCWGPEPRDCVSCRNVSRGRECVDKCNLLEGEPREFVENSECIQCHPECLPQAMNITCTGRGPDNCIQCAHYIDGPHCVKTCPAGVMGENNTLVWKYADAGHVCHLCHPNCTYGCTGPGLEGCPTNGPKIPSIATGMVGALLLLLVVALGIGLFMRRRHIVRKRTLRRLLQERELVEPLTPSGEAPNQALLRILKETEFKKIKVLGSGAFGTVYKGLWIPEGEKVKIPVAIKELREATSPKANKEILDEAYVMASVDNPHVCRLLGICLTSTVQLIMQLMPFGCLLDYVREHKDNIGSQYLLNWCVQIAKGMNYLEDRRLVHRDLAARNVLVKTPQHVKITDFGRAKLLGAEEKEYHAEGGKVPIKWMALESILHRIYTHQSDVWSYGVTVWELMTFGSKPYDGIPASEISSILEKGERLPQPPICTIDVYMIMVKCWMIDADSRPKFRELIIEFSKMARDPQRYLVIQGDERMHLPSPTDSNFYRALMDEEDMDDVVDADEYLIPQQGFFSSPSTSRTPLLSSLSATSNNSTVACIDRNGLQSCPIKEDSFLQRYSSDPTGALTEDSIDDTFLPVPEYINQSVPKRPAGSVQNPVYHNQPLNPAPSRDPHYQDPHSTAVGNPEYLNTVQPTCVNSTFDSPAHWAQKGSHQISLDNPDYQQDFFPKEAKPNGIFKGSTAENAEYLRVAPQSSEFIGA
UniProt P00533, 25-1210 limits assumed: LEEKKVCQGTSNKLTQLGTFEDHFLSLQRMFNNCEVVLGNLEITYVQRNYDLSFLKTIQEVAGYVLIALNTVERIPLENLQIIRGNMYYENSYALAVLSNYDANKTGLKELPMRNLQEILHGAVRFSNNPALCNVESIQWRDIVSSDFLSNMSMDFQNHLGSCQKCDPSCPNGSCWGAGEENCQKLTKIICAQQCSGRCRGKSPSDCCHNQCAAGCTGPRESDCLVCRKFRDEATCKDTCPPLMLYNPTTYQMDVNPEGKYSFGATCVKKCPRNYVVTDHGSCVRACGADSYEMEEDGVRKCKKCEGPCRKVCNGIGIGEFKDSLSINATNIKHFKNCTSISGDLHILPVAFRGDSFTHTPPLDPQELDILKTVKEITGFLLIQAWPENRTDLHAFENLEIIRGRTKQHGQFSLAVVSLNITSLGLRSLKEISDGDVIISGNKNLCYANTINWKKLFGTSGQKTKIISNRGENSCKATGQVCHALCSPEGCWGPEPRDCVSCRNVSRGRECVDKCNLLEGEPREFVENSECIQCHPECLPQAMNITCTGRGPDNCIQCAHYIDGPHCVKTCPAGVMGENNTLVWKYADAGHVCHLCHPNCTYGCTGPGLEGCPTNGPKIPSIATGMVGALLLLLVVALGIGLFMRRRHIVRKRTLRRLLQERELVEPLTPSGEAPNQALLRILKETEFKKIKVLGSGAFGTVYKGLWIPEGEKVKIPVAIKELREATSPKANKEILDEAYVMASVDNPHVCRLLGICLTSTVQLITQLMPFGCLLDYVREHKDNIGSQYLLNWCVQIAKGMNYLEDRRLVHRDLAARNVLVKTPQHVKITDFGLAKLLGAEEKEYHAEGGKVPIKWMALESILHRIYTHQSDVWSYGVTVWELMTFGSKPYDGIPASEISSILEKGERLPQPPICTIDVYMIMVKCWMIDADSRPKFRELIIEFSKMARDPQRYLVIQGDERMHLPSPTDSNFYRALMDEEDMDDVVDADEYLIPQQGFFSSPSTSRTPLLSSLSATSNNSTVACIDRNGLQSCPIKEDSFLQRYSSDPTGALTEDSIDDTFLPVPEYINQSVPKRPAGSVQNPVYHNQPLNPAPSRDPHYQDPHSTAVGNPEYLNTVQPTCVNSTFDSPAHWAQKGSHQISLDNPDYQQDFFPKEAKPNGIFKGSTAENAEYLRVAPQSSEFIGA
UniProt P00533, with tags, fused parts or gaps DEL746-750 limits assumed: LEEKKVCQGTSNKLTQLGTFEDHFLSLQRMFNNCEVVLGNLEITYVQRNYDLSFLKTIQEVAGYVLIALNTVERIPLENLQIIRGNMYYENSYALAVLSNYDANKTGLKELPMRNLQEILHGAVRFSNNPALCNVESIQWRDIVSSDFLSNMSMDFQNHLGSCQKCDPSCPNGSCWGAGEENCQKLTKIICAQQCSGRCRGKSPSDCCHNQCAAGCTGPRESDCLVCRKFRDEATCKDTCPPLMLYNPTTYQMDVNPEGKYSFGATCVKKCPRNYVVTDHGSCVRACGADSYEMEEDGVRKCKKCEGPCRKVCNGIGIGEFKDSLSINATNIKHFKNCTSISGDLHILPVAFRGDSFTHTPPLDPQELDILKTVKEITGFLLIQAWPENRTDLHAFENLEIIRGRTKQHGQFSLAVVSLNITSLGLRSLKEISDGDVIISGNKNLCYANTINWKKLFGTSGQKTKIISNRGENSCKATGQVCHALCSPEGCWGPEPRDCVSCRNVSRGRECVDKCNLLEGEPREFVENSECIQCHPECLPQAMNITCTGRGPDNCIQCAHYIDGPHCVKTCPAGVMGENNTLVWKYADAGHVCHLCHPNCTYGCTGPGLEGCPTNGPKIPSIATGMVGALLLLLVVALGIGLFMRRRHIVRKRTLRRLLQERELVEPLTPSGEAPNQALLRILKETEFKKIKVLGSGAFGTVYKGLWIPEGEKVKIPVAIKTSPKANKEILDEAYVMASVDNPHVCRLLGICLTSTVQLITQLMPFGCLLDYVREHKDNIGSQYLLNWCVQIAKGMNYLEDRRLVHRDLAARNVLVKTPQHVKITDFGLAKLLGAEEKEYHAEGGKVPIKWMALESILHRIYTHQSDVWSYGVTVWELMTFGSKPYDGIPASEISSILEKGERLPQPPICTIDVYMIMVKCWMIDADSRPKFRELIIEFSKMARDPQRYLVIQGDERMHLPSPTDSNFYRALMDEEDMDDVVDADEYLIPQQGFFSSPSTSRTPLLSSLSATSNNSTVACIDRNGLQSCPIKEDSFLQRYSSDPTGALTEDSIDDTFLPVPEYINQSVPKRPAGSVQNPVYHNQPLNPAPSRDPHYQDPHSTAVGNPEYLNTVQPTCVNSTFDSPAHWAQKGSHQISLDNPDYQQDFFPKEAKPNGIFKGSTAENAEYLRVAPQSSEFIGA

`C=CC(=O)N1C[C@@H](COc2nc(Nc3cnn(C)c3)nc3[nH]cc(C#N)c23)[C@H](CC(F)(F)F)C1` (relative stereo): the IC50 is 0.1 to 1 µM in experiment [1]; 0.446 µM in experiment [2]; 1.93 µM in experiment [3]; greater than 10 µM in [4]; 0.01 to 0.1 µM in experiment [5]; 0.01 to 0.1 µM in experiment [6]. Besides, the IC50 in experiment [7] was less than 0.01 µM.

With `C=CC(=O)N(C)[C@H]1C[C@H](Oc2nc(Nc3cn(C)nc3C)nc3[nH]cc(-c4ccccn4)c23)C1` (relative stereo), the IC50 amounted to 41 nM in experiment [8], 0.24 µM in experiment [9], 60 nM in [10] and 6.12 µM in experiment [4].

For the compound `C=CC(=O)Nc1cccc(Oc2nc(Nc3cnn(C4CCN(C)CC4)c3)nc3[nH]cnc23)c1`, in experiment [11], the IC50 turned out to be 0.633 µM.

Regarding `C=CC(=O)N(C)[C@H]1C[C@H](Oc2nc(Nc3cn[nH]c3)nc3[nH]cc(Cl)c23)C1` (relative stereo), the results for the IC50 in experiment [8], in [9] and in experiment [10] were 86 nM, 1.32 µM and 311 nM, respectively.

For the compound `C=CC(=O)N1C[C@@H](COc2nc(Nc3cnn(C)c3)nc3[nH]cc(C#N)c23)[C@H](C2CC2)C1` (relative stereo), the IC50 in experiment [1] was 0.1 to 1 µM; in experiment [2], 0.162 µM; in experiment [3], 1.01 µM; in [4] it was 2.34 µM; in experiment [5] it was less than 0.01 µM; in [6], less than 0.01 µM. Further, in [7], the IC50 was 0.1 to 1 µM.
